From patent publication US20080125475A1 (priority 2006, published 2008) come the findings set out here.

Sequences of proteins named here, by UniProt entry; tags and fusion partners are left off.
UniProt P35372, whole entry: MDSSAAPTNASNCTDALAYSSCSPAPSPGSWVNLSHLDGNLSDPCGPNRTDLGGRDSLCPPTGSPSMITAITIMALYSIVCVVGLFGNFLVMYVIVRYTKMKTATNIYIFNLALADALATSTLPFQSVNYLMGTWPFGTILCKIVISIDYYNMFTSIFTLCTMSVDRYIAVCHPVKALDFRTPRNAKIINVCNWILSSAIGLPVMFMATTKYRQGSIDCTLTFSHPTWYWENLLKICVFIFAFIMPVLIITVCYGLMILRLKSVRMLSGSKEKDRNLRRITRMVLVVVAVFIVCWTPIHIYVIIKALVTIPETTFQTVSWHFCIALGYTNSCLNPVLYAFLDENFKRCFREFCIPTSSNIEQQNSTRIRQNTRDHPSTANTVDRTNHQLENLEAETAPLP

For orientation: Ki means a dissociation constant, usually derived from enzyme kinetics or from competition with a known ligand.

In data set [1] the test system is Sprague-Dawley rats. The data set can be described thus: Chung model: mononeuropathic pain after spinal nerve ligature. In kind it is in vivo, rat. Particulars: for ED50 chronic: rat; for ED50 chronic / Enhancement of action factor: i.v.; for Enhancement of action factor: ED50 tail flick rat / ED50 Chung rat; for analgesic potency in the neuropathic pain model relative to the acute pain model (factor): neuropathic pain models (Chung, Bennett) vs tail flick; for analgesic action after antagonization with naloxone or B11: 30 min.

For a further data set, the target named is human μ-opiate receptor (Homo sapiens, UniProt P35372). Briefly: μ binding, [3H]-naloxone displacement, CHO-K1 membrane preparation. To be noted: read-out: Ki (μ-OR).
For data set [2], the system named is Sprague-Dawley rats. Particulars: 25% intensity of thermal radiation.
The test system of another data set is rats. The data set can be described thus: Place preference (place conditioning) in rats. It counts as in vivo, rat.

`CNC1(c2ccccc2)CCC2(CC1)OCCc1c2[nH]c2ccc(OC)cc12` (centres unmarked): the ED50 chronic with Sprague-Dawley rats [1] (Chung model) was 363 µg/kg. Moreover, in the data set with Sprague-Dawley rats [1], the Enhancement of action factor came to 0.9 x and the “analgesic potency in the neuropathic pain model relative to the acute pain model (factor)” value is recorded as “no longer any more active in the neuropathic model than it is in the acute pain model”.

`CNC1(c2cccs2)CCC2(CC1)OCCc1c2[nH]c2ccc(F)cc12` (centres unmarked): in the data set with Sprague-Dawley rats [1] (Chung model), the “analgesic action after antagonization with naloxone or B11” value (from here on “analgesic action after antagonization”) was “analgesic action of the non-antagonized component in each case remains in place” and the ED50 chronic came to 8 µg/kg. Moreover, in the data set on Sprague-Dawley rats [1], the Enhancement of action factor is 8 x.

For `CN(C)C1(c2ccccc2)CCC2(CC1)OCCc1c2[nH]c2ccc(F)cc12` (centres unmarked), in the data set on Sprague-Dawley rats [1] (Chung model), the “analgesic action after antagonization” value is reported as “remains in place even at a very high dosage of B11” and the ED50 chronic was 1 µg/kg. In addition, in the data set with Sprague-Dawley rats [1] (Chung model, ipsilateral paw, 1 μg/kg i.v.), the “maximum, purely antiallodynic action” value was determined as 56 % MPE. In the data set with Sprague-Dawley rats [1], the Enhancement of action factor stood at 7 x and the “analgesic potency in the neuropathic pain model relative to the acute pain model (factor)” value is recorded as “approximately ten times more potent against neuropathic pain than against acute pain”. In the data set on Sprague-Dawley rats [1] (neuropathic animals), the “antiallodynic efficacy relative to fentanyl (factor)” value is listed as “approx. 10”.

As for `CNC1(c2ccccc2)CCC2(CC1)OCCc1c2[nH]c2ccc(F)cc12` (centres unmarked), in the data set with Sprague-Dawley rats [1] (Chung model), the “analgesic action after antagonization” value is given as “analgesic action of the non-antagonized component in each case remains in place” and the ED50 chronic was determined as 9 µg/kg. In addition, in the data set on Sprague-Dawley rats [1], the Enhancement of action factor came out at 12 x and the “analgesic potency in the neuropathic pain model relative to the acute pain model (factor)” value is on record as 10.

Regarding `CN(C)C1(c2ccsc2)CCC2(CC1)OCCc1c2[nH]c2ccccc12` (centres unmarked), on human μ-opiate receptor, the Ki stood at 100 pM.

Take `O=C1NCN(c2ccccc2)C12CCN(C1Cc3cccc4cccc1c34)CC2` (centres unmarked): the Ki at human μ-opiate receptor stood at 23000 pM.

Consider `CNC1(c2cccs2)CCC2(CC1)OCCc1c2[nH]c2ccccc12` (centres unmarked), for which, on human μ-opiate receptor, the Ki came to 500 pM. Also, the “transient (opioid-induced) hyperalgesia after acute administration” value in the data set on Sprague-Dawley rats [2] is “no transient hyperalgesia was observed”.

Turning to `CN(C)C1(c2cccs2)CCC2(CC1)OCCc1c2[nH]c2ccc(F)cc12` (centres unmarked), the “threshold dose for inducing place preference relative to analgesically semimaximal active dose” value with rats is “in the range of or above the analgesically semimaximal active dose”. Further, at human μ-opiate receptor, the Ki is 1000 pM. For the same compound, in the data set with Sprague-Dawley rats [1] (Chung model), the “analgesic action after antagonization” value is listed as “analgesic action of the non-antagonized component in each case remains in place” and the ED50 chronic was found to be 4 µg/kg. Moreover, in the data set on Sprague-Dawley rats [1], the Enhancement of action factor is 2.5 x.

As for `CN(C)C1(c2ccsc2)CCC2(CC1)OCCc1c2[nH]c2ccc(F)cc12` (centres unmarked), the inhibition constant Ki on human μ-opiate receptor stood at 1300 pM.

As for `CNC1(c2ccccc2)CCC2(CC1)OCCc1c2[nH]c2ccccc12` (centres unmarked), the inhibition constant (Ki) on human μ-opiate receptor was 400 pM.

Consider `CN(C)[C@]1(c2ccccc2)CC[C@]2(CC1)OCCc1c3ccccc3[nH]c12`, for which, in the data set on Sprague-Dawley rats [1] (Chung model), the ED50 chronic turned out to be 0.8 µg/kg. Moreover, in the data set on Sprague-Dawley rats [1], the Enhancement of action factor was determined as 2.5 x.

In the case of `CN1CC[C@]23c4c5ccc(O)c4O[C@H]2C(=O)CC[C@H]3[C@H]1C5`, in the data set with Sprague-Dawley rats [1] (Chung model), the ED50 chronic amounted to 220 µg/kg.

Turning to `CN(C)C1(c2cccs2)CCC2(CC1)OCCc1c2[nH]c2ccccc12` (centres unmarked), in the data set on rats, the “threshold dose for inducing place preference relative to analgesically semimaximal active dose” value was “in the range of or above the analgesically semimaximal active dose”. Also, at human μ-opiate receptor, the Ki stood at 300 pM. The ED50 chronic in the data set on Sprague-Dawley rats [1] (Chung model) amounted to 1 µg/kg. Moreover, the Enhancement of action factor in the data set on Sprague-Dawley rats [1] stood at 2 x. The “transient (opioid-induced) hyperalgesia after acute administration” value with Sprague-Dawley rats [2] is “no transient hyperalgesia was observed”.
